Key:
[1] = in vivo; cited from earlier work
human CT receptor = target: T1, human CT receptor (Homo sapiens, UniProt P30988); assay: hCT cAMP functional assay (HTRF); format: cell-based
T1 sequence (P30988 25-474): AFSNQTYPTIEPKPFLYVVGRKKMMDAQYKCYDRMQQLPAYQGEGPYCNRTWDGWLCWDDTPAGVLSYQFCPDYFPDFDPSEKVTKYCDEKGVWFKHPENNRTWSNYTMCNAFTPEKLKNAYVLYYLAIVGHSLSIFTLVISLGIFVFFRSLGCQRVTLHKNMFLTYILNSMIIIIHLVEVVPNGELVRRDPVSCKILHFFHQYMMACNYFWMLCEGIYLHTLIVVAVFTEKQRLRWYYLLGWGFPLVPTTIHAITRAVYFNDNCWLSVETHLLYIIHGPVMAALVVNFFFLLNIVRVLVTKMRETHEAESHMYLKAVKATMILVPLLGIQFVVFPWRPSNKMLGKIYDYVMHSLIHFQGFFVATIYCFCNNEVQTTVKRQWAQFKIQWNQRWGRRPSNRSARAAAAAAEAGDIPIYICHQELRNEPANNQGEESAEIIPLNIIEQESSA

With `CC[C@H](C)[C@H](NC(=O)[C@@H]1CCCN1C(=O)CNC(=O)[C@H](Cc1ccccc1)NC(=O)[C@H](CC(N)=O)NC(=O)[C@H](CC(N)=O)NC(=O)[C@H](CO)NC(=O)[C@H](CO)NC(=O)[C@H](Cc1c[nH]cn1)NC(=O)[C@@H](NC(=O)[C@H](CC(C)C)NC(=O)[C@H](Cc1ccccc1)NC(=O)[C@H](CC(N)=O)NC(=O)[C@H](C)NC(=O)[C@H](CC(C)C)NC(=O)[C@H](CCCNC(=N)N)NC(=O)[C@H](CCC(N)=O)NC(=O)[C@@H](NC(=O)[C@H](C)NC(=O)[C@@H]1CSSC[C@H](NC(=O)[C@@H](N)CCCCN)C(=O)N[C@@H](CC(N)=O)C(=O)N[C@@H]([C@@H](C)O)C(=O)N[C@@H](C)C(=O)N[C@@H]([C@@H](C)O)C(=O)N1)[C@@H](C)O)C(C)C)C(=O)N[C@@H](CC(C)C)C(=O)N1CCC[C@H]1C(=O)N1CCC[C@H]1C(=O)N[C@H](C(=O)N[C@@H](CC(N)=O)C(=O)N[C@H](C(=O)NCC(=O)N[C@@H](CO)C(=O)N[C@@H](CC(N)=O)C(=O)N[C@H](C(=O)N[C@@H](Cc1ccc(O)cc1)C(N)=O)[C@@H](C)O)C(C)C)[C@@H](C)O` [Pramlintide, reference compound] as the compound, how does the half-life [1] read?
The half-life was “less than an hour”.

What about the EC50 (human CT receptor) of the same compound?
Its EC50 is 2.32 ± 0.408 nM.

From patent US12558430B2, “Dual amylin and calcitonin receptor agonists and uses thereof” (Eli Lilly and Company, priority 2020, dated 2026)
